Measurements published in Sander's compilation of Henry's law constants (doi:10.1021/ac00070a008).

Assay: Henry solubility constant Hcp at 298.15 K (mol/(m3 Pa))
Settings: reference: Li et al. (1993)

CCCCOCCCC [dibutyl ether]
Henry solubility constant Hcp: 0.0013
